Source: US11485741B2

Chains of the proteins cited; added tags and fusions are not shown. Residues count along the entry.
UniProt Q9NYK1, 27-1049 limits assumed: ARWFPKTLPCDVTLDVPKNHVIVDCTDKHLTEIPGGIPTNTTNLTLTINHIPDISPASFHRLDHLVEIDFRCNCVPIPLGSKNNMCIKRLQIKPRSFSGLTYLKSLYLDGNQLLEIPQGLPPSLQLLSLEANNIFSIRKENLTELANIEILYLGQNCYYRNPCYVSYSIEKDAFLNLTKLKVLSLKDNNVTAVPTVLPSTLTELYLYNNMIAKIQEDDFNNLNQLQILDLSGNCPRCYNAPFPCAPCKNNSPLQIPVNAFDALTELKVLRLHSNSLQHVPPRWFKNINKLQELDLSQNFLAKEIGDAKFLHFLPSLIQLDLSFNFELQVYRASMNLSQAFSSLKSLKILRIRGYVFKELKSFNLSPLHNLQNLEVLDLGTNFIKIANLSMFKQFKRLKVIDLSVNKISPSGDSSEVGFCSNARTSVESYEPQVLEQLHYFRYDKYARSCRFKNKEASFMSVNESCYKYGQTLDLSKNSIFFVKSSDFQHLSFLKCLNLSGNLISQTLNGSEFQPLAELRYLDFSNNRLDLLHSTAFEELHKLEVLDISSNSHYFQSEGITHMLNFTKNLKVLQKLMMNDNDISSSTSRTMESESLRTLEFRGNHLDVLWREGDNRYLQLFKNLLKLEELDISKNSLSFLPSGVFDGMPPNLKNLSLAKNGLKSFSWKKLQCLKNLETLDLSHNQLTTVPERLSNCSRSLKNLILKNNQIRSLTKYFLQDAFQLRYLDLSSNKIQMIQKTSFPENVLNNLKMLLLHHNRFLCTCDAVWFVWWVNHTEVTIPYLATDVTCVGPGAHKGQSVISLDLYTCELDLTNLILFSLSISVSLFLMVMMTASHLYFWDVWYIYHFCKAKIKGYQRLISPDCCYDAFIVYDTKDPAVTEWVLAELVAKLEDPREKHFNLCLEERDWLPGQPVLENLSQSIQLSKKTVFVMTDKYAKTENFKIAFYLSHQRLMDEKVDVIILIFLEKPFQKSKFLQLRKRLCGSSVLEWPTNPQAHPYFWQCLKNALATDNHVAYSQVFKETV

Key:
interleukin 6 (IL-6) = assay: Interleukin 6 induction assay in human whole blood (AlphaLISA); format: cell-based; settings: read-out: IL-6 Induction EC50 (nM) (normalized 10 μM), 20 h at 37° C., 100% set by resiquimod reference at 10 μM, average if more than one assay
human TLR7 = human TLR7 (Homo sapiens, UniProt Q9NYK1)

SMILES | EC50 (interleukin 6 (IL-6)) [nM] | EC50 (human TLR7) [nM]
Nc1nc2nc3c1nc(O)n3Cc1ccc(-c3ccc(CNC4C5CC4C5)cc3)c(c1)C/C=C\CCO2 (stereo not drawn) | 1.3 | 0.76
Nc1nc2nc3c1nc(O)n3Cc1ccc(Oc3ccc(CNC4CCC4)cc3)c(c1)C/C=C/CCO2 | 6.6 | 8.9
Nc1nc2nc3c1nc(O)n3Cc1ccc(-c3ccc(CN[C@H]4C[C@H](O)C4)cc3)c(c1)C/C=C\CCO2 | 1.5 | 0.32
